The target in assay [1] is T1, glycine site of the NMDA receptor (Rattus norvegicus, UniProt P35439). The assay is described as follows: biochemical.
For assay [2], the target named is T2, NMDA (glycine site) receptor (Rattus norvegicus, UniProt P35439). The assay is described as follows: cell-based.
Assay [3] concerns the target T2, NMDA (glycine site) receptor. The note with it: read-out: Functional in vitro glycine antagonism IC50.
In assay [4] the target is T1, glycine site of the NMDA receptor. The note with it: read-out: Binding affinity IC50; pH 7.4.

Read-outs that look alike come from different tables or passages of the source.

Take `COCc1nnc(-c2ccc[n+]([O-])c2)n1-c1c(Cl)c(Cl)cc2[nH]c(=O)c(=O)[nH]c12` [Example 2, (-)-6,7-Dichloro-5-[3-methoxymethyl-5-(1-oxidopyridin-3-yl)-4H-1,2,4-triazol-4-yl]-2,3(1H,4H)-quinoxalinedione hydrate]: the IC50 worked out at 2.4 nM in assay [1] and 140 nM in assay [2].
Consider “(-)-6,7-Dichloro-5-[3-methoxymethyl-5-(1-oxidopyridin-3-yl)-4H-1,2,4-triazol-4-yl]-2,3(1H,4H)-quinoxalinedione, silica complex [Reference Example 1]”, for which the IC50 came to 190 nM in assay [3] and 3.8 nM in assay [4].
